The results in this text go back to patent publication US20200238197A1 (REPLIGEN, published 2020).

The target of the test is T1, human IgG1.
T1 construct: also called IgG1 containing antibodies (e.g. Cetuximab for IgG1)
As to the kind of experiment: ELISA, IgG1 antibody coated on plate, detection with Strep-Tactin-HRP.

B1: IB14 (designed binder)
chain: PAAKHDKDQQSAFYEILHLPNLTEDQRSAFIQSLKDDPSVSKEILGEAKKLNDAQAPPWSHPQFEK
The molecule B1 gave a Kd of 4.9 nM.

By Kd is commonly meant the concentration at which binding is half-saturated. Low values mean a tighter complex, high ones a looser complex.
